System: HCT-116 cells
Assay: MTT assay of cancer cell viability
Settings: 48 hours
Method: CANCER CELL TREATMENTS: Human colorectal carcinoma cells (HCT-116) cells were grown according to a method described in Khan, F. A.; Akhtar, S.; Almohazey, D.; Alomari, M.; Almofty, S. A.; Eliassari, A. “Fluorescent magnetic submicronic polymer (FMSP) nanoparticles induce cell death in human colorectal carcinoma cells” Artif Artif. Cells, Nanomed., Biotechnol. 2018, (doi: 10.1080/21691401.2018.1491476). HCT-116 cells were grown in Dulbecco Modified Eagle Medium (DMEM), 10% fetal bovine serum, L-glutamine, selenium chloride, penicillin, and streptomycin. The cells were cultured in a CO2 incubator (Heracell 150i, Thermo-scientific, USA) at 37° C. under 5% CO2 for 48 to 72 hours. Confluenced cells were seeded into 96-well cell plates and, once the cells became 80% confluenced, the cancer cells were treated with different concentrations ([…]) of Conj. 1, Conj. 2, Conj. 3, Conj. 4, Conj. 5 respectively. […] Each sample was taken in triplicate to obtain a statistical analysis.
CANCER CELLS VIABILITY BY MTT ASSAY: To examine effect of Conj. 1, Conj. 2, Conj. 3, Conj. 4, Conj. 5 on cancer cells, a 3-(4,5-dimethylthiazol-2-yl)-2,5-diphenyltetrazolium bromide (MTT) assay was conducted on the cells. The cancer cells were seeded at 6×10^4 cells/mL concentration in 96-well culture plates containing DMEM, 10% Fetal bovine serum, penicillin, and streptomycin and were incubated in CO2 incubator until the cells were 80% confluenced. The cancer cells were then treated with Conj. 1, Conj. 2, Conj. 3, Conj. 4, Conj. 5 at concentrations of 1.3, 3.26, and 6.5 mg/mL, whereby no conjugate was added in the control groups. A 5.0 mg/mL MTT solution was added into each well, and the cells were again incubated for 4 hours in the CO2 incubator and finally media was changed with the addition of DMSO. The samples were then measured using an ELISA plate reader (Biotek Instruments, USA) at wavelength 570 nm.
The following formula was used to calculate percentage of cell viability: % of Cell viability=[Optical density (O.D) of Conj. 1, Conj. 2, Conj. 3, Conj. […]
1, Conj. […] 5 treated groups were calculated. […]

SiO2-3GPS-Imi [Conj. 5]
cancer cell viability (% of the control) (HCT-116, 1.3 mg/mL): 71.17%
cancer cell viability (% of the control) (HCT-116, 3.26 mg/mL): 62.22%
cancer cell viability (% of the control) (HCT-116, 6.5 mg/mL): 43.28%
